{"source": "patent US9045474B2", "about": "“Compounds and compositions for mitigating tissue damage and lethality” (The Regents of the University of California, priority 2010, dated 2015)", "system": "C3H mice", "experiment": "Mitigation of radiation-induced lethality in C3H mice (8Gy, LD100/30)", "conditions": "75 mg/kg s.c. after 8Gy", "data": [{"smiles": "COc1ccc2cc(-c3nc4ccc(C)cn4c3NCc3ccco3)c(=O)[nH]c2c1", "note": "[Yel002]", "values": [{"measurement": "signs of toxicity or adverse effects", "value": "Without any signs of toxicity or advert effects"}]}]}
